According to PMC6844067:

The substances below were run on OC[C@H]1O[C@@](CO)(O[C@H]2O[C@H](CO)[C@@H](O)[C@H](O)[C@H]2O)[C@@H](O)[C@@H]1O (assay: purified protein). Conditions: 100 mM acetate buffer, pH 4.5, 55 °C, 20 min, 1–20 mg/mL sucrose, printed μM conflicts with this substrate range (about 3–58 mM), unit probably mM.

Row | Substance | Km [µM] | Vmax [µM/min/mg] | kcat [s⁻¹] | kcat/Km [M⁻¹ s⁻¹]
1 | rKcINU1 (recombinant exo-inulinase KcINU1) (Kluyveromyces marxianus; N385Q) | 33.04 ± 4.11 | 3270 | 3300 | 1e+08
2 | rKcINU1 (recombinant exo-inulinase KcINU1) (Kluyveromyces marxianus; N393Q) | 32.73 ± 4.99 | 1720 | 1730 | 5.3e+07
3 | rKcINU1 (recombinant exo-inulinase KcINU1) (Kluyveromyces marxianus; N422Q) | 24.89 ± 1.07 | 2340 | 2360 | 9.48e+07
4 | rKcINU1 (recombinant exo-inulinase KcINU1) (Kluyveromyces marxianus; N490Q) | 76.29 ± 16.21 | 167 | 169 | 2.21e+06
5 | rKcINU1 (recombinant exo-inulinase KcINU1) (Kluyveromyces marxianus; N549Q) | 37.97 ± 3.4 | 3020 | 3050 | 8.04e+07
